The target of assay [1] is human somatostatin receptor SSTR4 (Homo sapiens (Human), UniProt P31391). In words: Competitive radioligand binding, 125I-Tyr-SRIF 14, membrane preparations. To be noted: competitive binding vs 125I-Tyr-SRIF 14, human SSTR4 membranes; read-out: SST4. On the procedure: Respective membrane receptor preparations were prepared in assay buffer (25 mM HEPES, 10 mM MgCl2, 1 mM CaCl2, 0.5% BSA, pH=7.4) at a 1:150 dilution. […] Binding assays were performed in triplicate for each concentration of ligand in a total volume of 200 μL radioligand (25 μL ligand, 25 μL radioligand, 150 μL receptors) and incubated at room temperature for 90 minutes using a shaking table. Binding was terminated by filtration through GF/B glass fiber filters that were presoaked in 0.5% polyethyleneimine for a minimum of 4 hours. Filters were washed 9× with 1000 μL ice cold wash buffer (50 mM Tris-HCl, pH=7.4, 0.2% BSA). Filters were scored, transferred into plastic test tubes and counted in a gamma counter (Wizard2, Perkin-Elmer). Determination of the Ki for each compound was performed using non-linear regression with GraphPad PRISM-5 software (GraphPad Software, Inc., La Jolla, Calif.).

Amino acid sequences for entries named in this document (tags omitted). A change or cut given only in a name is not applied to a line headed by its entry.
UniProt P31391: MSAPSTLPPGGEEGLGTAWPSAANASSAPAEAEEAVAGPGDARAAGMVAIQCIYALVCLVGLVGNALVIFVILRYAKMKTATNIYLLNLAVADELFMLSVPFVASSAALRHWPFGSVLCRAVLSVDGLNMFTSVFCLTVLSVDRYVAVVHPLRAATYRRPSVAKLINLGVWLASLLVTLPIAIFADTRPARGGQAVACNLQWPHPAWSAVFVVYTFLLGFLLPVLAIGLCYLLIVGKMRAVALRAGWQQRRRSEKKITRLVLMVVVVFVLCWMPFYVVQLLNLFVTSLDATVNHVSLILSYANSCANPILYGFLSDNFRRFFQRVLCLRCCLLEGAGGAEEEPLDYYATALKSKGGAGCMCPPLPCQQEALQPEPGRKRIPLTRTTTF

Assay [2] concerns the target CHO-K1 cells expressing human somatostatin SSTR4 (Homo sapiens (Human), UniProt P31391). In words: Inhibition of forskolin stimulated cAMP, TR-FRET LANCE assay. The assay is classed as cell-based. To be noted: against 5 μM forskolin. How it is done:
Measurement of forskolin stimulated inhibition of cAMP was performed via time-resolved fluorescence resonance energy transfer (TR-FRET) LANCE assay (AD0262, PerkinElmer Life Science, Inc., Boston Mass.). […] LANCE cAMP assay was performed per manufacture instruction with assessment of respective compound, somatostatin-28 (Sigma-Aldrich Co., St. Louis, Mo.) as control agonist, against 5 μM forskolin, performed in triplicate across concentration curve. […] Data was calculated via GraphPad PRISM-5 software.
A general note: In TR-FRET formats the signal depends on donor and acceptor labels being close together.

Several values for one entry are separate records, joined by “and”; a condition that tells them apart may be missing. Equal entries are not always repeated.

Usually EC50 stands for the concentration at which the effect is half-maximal. As to `COc1ccc2[nH]cc(Cc3nnc(Cc4ccc(F)cc4)n3CCCc3c[nH]cn3)c2c1` [SK-I-55, 3-((4-(3-(1H-imidazol-4-yl)propyl)-5-(4-fluorobenzyl)-4H-1,2,4-triazol-3-yl)methyl)-5-methoxy-1H-indole], the Ki in assay [1] turned out to be 2.79 nM. For the same molecule, it took 6.02 nM to reach a half-maximal effect in assay [2] (EC50).

For `COc1ccc(Cc2nnc(Cc3c[nH]c4cc(F)ccc34)n2CCCc2c[nH]cn2)cc1` [SK-I-105, 3-((4-(3-(1H-imidazol-4-yl)propyl)-5-(4-methoxybenzyl)-4H-1,2,4-triazol-3-yl)methyl)-6-fluoro-1H-indole], the Ki in assay [1] was determined as 5.13 nM. The EC50 in assay [2] was determined as 6.65 nM.

Regarding `FC(F)(F)c1cccc(Cc2nnc(CCc3c[nH]c4ccccc34)n2CCCc2c[nH]cn2)c1` [BN-VI-97, 3-(2-(4-(3-(1H-Imidazol-4-yl)propyl)-5-(3-(trifluoromethyl)benzyl)-4H-1,2,4-triazol-3-yl)ethyl)-1H-indole], in assay [1], the Ki was found to be 3.2 nM. This molecule also registered an EC50 in assay [2] of 6.08 nM.

As to `O=[N+]([O-])c1cccc(Cc2nnc(CCc3c[nH]c4ccccc34)n2CCCc2c[nH]cn2)c1` [MM-I-43, 3-(2-(4-(3-(1H-Imidazol-4-yl)propyl)-5-(3-nitrobenzyl)-4H-1,2,4-triazol-3-yl)ethyl)-1H-indole], the Ki in assay [1] worked out at 36.6 nM. The molecule further registered a concentration for a half-maximal effect (EC50) in assay [2] of 98.4 nM.

`Brc1cccc(Cc2nnc(CCc3c[nH]c4ccccc34)n2CCCc2c[nH]cn2)c1` [SM-I-50, 3-(2-(4-(3-(1H-Imidazol-4-yl)propyl)-5-(3-bromobenzyl)-4H-1,2,4-triazol-3-yl)ethyl)-1H-indole]: the Ki in assay [1] stood at 5.54 nM. Also, in assay [2], the half-maximal effective concentration (EC50) is 4.35 nM.

Regarding `COc1cccc(Cc2nnc(CCc3c[nH]c4ccccc34)n2CCCc2c[nH]cn2)c1` [BN-VI-61, 3-(2-(4-(3-(1H-Imidazol-4-yl)propyl)-5-(3-methoxybenzyl)-4H-1,2,4-triazol-3-yl)ethyl)-1H-indole], the Ki in assay [1] is 7.74 nM and 9.32 nM. The same molecule came in with an EC50 in assay [2] of 15.6 nM.

With `c1ccc(Cc2nnc(CCc3c[nH]c4ccccc34)n2CCCc2c[nH]cn2)cc1` [SM-I-26, 3-(2-(4-(3-(1H-Imidazol-4-yl)propyl)-5-benzyl-4H-1,2,4-triazol-3-yl)ethyl)-1H-indole], the Ki in assay [1] is 11.9 nM and 12.8 nM. Further, the EC50 in assay [2] was 16.5 nM and 23.5 nM.

As for `N#Cc1cccc(Cc2nnc(CCc3c[nH]c4ccccc34)n2CCCc2c[nH]cn2)c1` [MM-I-63, 3-((4-(3-(1H-imidazol-4-yl)propyl)-5-(2-(1H-indol-3-yl)ethyl)-4H-1,2,4-triazol-3-yl)methyl)benzonitrile], the Ki in assay [1] stood at 30.3 nM. Further, the midpoint of the response in assay [2], the EC50, lay at 75.8 nM.

As to `CS(=O)(=O)c1cccc(Cc2nnc(CCc3c[nH]c4ccccc34)n2CCCc2c[nH]cn2)c1` [SM-I-92, 3-(2-(4-(3-(1H-imidazol-4-yl)propyl)-5-(3-(methylsulfonyl)benzyl)-4H-1,2,4-triazol-3-yl)ethyl)-1H-indole], the Ki in assay [1] stood at 6.98 nM. Besides, the half-maximal effective concentration (EC50) in assay [2] is 22.7 nM.

Source of the values: patent US11136312B2, “3,4,5-trisubstituted-1,2,4-triazoles and 3,4,5-trisubstituted-3-thio-1,2,4-triazoles and uses thereof” (Board of Trustees of Southern Illinois University, priority 2017, dated 2021).
